For assay [1], the target named is TNF-α converting enzyme (TACE) (Homo sapiens, UniProt P78536). Kind of assay: TACE inhibition (fluorescent peptidyl substrate). Type of assay: biochemical. As to conditions: read-out: IC50 (nM) or % Inhibition (µM) TACE.
A further assay has as its target T1, MMP-1 (Homo sapiens, UniProt P03956).
T1 sequence (P03956 100-469): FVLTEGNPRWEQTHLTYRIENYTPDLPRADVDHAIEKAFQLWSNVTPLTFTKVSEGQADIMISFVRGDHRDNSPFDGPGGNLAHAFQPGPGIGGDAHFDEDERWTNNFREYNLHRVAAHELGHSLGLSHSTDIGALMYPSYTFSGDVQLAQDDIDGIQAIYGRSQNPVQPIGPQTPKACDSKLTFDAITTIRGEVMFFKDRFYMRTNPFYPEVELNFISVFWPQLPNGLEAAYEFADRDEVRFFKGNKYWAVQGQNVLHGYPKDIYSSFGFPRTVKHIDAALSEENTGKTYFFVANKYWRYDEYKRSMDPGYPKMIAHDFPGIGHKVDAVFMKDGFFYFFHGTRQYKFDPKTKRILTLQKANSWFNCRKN
Kind of assay: MMP-1 inhibition (thiopeptide or fluorescent peptide substrate). As to conditions: plain number = IC50. The assay is classed as biochemical.

Sequences of proteins named here, by UniProt entry; tags and fusion partners are left off. Residues count along the entry.
UniProt P78536, 215-824, species assumed: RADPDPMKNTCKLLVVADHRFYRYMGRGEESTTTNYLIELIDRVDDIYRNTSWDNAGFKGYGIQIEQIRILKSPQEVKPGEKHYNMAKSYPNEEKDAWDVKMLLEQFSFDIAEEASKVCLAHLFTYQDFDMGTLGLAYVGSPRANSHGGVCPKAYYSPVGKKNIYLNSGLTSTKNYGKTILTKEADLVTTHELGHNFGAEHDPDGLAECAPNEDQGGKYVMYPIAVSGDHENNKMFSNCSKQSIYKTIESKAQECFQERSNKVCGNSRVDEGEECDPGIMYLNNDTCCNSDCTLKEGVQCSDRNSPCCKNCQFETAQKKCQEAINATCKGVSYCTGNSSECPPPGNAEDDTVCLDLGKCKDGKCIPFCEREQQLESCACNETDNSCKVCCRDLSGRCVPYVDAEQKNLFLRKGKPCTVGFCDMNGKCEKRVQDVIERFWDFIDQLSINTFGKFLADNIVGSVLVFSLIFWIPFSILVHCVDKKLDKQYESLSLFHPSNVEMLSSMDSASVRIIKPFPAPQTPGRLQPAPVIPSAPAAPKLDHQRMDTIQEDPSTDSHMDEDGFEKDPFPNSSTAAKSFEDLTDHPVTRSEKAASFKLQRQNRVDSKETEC

One may read the IC50 as the concentration at which inhibition is half-maximal.

For `COc1ccc(S(=O)(=O)N(C)c2c(C)cc(Br)cc2C(=O)NO)cc1` [Example 36, 5-Bromo-N-hydroxy-2-[(4-methoxy-benzenesulfonyl)-methyl-amino]-3-methyl-benzamide], the half-inhibitory concentration (IC50) in assay [1] stood at 32 nM.

In turn, `Cc1cc(Br)cc(C(=O)NO)c1N(C)S(=O)(=O)c1ccc(OCC#Cc2ccccc2)cc1` [Example 59, 5-Bromo-N-hydroxy-3-methyl-2-{methyl-[4-(3-phenyl-prop-2-ynyloxy)-benzenesulfonyl]-amino}-benzamide] showed a concentration for half-maximal inhibition (IC50) at MMP-1 of 3810 nM.

With `CC#CCOc1ccc(S(=O)(=O)N(C)c2c(C)cc(Br)cc2C(=O)NO)cc1` [Example 54, 5-Bromo-2-[(4-But-2-ynyloxy-benzenesulfonyl)-methyl-amino]-N-hydroxy-3-methyl-benzamide], the IC50 in assay [1] turned out to be 16 nM.

The values above are taken from EP1144369B1 (Wyeth Holdings Corporation, priority 1999, dated 2000).
